Measurements: paper PMC9785202, “Changes in Disposition of Ezetimibe and Its Active Metabolites Induced by Impaired Hepatic Function: The Influence of Enzyme and Transporter Activities” (Pharmaceutics, 2022)

Chains of the proteins cited; added tags and fusions are not shown. Lines headed by an entry give the natural chain unless they say otherwise; changes in a name come on top.
UniProt Q9NPD5: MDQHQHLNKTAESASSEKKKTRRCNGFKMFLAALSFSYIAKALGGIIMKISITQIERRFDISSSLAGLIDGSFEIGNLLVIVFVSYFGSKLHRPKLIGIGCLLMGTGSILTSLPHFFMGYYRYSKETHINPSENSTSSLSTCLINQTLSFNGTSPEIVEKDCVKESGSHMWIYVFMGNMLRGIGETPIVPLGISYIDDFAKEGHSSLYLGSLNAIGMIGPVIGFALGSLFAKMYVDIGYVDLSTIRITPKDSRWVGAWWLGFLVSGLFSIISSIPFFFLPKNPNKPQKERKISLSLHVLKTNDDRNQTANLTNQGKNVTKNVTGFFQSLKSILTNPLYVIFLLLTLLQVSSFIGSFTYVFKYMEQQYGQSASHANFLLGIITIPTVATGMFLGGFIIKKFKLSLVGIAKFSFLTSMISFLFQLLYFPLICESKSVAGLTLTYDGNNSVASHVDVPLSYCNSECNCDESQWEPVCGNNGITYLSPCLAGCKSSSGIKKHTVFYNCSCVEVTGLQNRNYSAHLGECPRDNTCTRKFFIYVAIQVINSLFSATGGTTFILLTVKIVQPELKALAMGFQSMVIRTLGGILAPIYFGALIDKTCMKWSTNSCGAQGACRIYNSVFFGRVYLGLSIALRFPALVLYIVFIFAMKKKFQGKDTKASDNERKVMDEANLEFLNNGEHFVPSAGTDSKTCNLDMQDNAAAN

Molecular target: OATP1B3 (Homo sapiens, UniProt Q9NPD5)
Experiment: Inhibition of OATP1B3-mediated uptake in OATP1B3-transfected HEK293 cells by bile acids and rifampicin
Details: inhibitor 200 μM, substrate EZE-Ph

CO[C@H]1/C=C/O[C@@]2(C)Oc3c(C)c(O)c4c(O)c(c(/C=N/N5CCN(C)CC5)c(O)c4c3C2=O)NC(=O)/C(C)=C\C=C\[C@H](C)[C@H](O)[C@@H](C)[C@@H](O)[C@@H](C)[C@H](OC(C)=O)[C@@H]1C [rifampicin, reference compound]
uptake of EZE-Ph in OATP1B3-expressing HEK293 cells in the presence of inhibitor: 7.94%
